# Measured values as given in PubChem BioAssay AID759 (NMMLSC, 2007).
# Amino acid sequences for entries named in this document (tags omitted).
# UniProt P01112, whole entry: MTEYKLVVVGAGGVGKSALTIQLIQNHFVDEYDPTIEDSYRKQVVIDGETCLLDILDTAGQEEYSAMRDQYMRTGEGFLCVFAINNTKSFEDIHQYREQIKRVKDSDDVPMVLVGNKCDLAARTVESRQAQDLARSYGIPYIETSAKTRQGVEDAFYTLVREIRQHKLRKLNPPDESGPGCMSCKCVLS
# This is a selection; strong and weak results do not stand in their true shares. Activity calls are given as the source filed them.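 How the source made its calls: active means GTP binding activity at least 20% away from the 100% baseline, either lowered as inhibitor or raised as activator; inconclusive means flagged as likely green fluorescent, judged across all proteins in the well; inactive means the rest.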
# Molecular target: GTPase HRas (Homo sapiens) (UniProt P01112)
# Experiment: modulators of GTP binding to HRas wildtype, primary screen, biochemical, bead-based flow cytometry, multiplex (AID 759);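 further: 0% = unlabeled GTP competition control and 100% = no-compound control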
# Details: GST-Ras wt beads, Bodipy-FL-GTP binding, at 10 µM, actives lie on both sides
row,SMILES,GTP binding activity
1,Cc1c(NP(C)(=O)Oc2ccc(C(C)C)cc2)c(=O)n(-c2ccccc2)n1C (stereo not drawn),inactive: 102%
2,O=[N+]([O-])c1cc([N+](=O)[O-])c(Nc2ccccn2)c([N+](=O)[O-])c1,inactive: 97%
3,CCc1ccc(OP(C)(=O)O)cc1,inactive: 100%
4,CP(=O)(Nc1ccccn1)Oc1ccccc1 (stereo not drawn),inactive: 104%
5,COc1ccccc1OP(C)(=O)Nc1ccc(C)cc1C (stereo not drawn),inactive: 102%
6,CN(C)CCOC(=O)C(O)(c1ccccc1)C1CCCC1 (stereo not drawn),inactive: 98%
7,COc1ccc(OP(C)(=O)Nc2ccccn2)cc1 (stereo not drawn),inactive: 95%
8,Cc1nc2ccc3ccccc3c2o1.O=[N+]([O-])c1cc([N+](=O)[O-])c(O)c([N+](=O)[O-])c1,inactive: 103%
9,CP(=O)(Nc1ccc(Cl)cc1Cl)Oc1ccccc1 (stereo not drawn),inactive: 96%
10,CP(=O)(OCCOc1ccccc1)OCCOc1ccccc1,inactive: 97%
11,Cc1cc(C)cc(OP(C)(=O)Nc2cccc(C(F)(F)F)c2)c1 (stereo not drawn),inactive: 96%
12,COc1ccc(OP(C)(=O)Nc2ccccc2Br)cc1 (stereo not drawn),inactive: 101%
13,COc1ccccc1OP(C)(=O)Nc1ccc(C)c(C)c1 (stereo not drawn),inactive: 98%
14,CP(=O)(OC12CC3CC(CC(C3)C1)C2)OC12CC3CC(CC(C3)C1)C2,inactive: 101%
15,CCOC(=O)c1ccc(NP(C)(=O)Oc2ccc(Cl)cc2)cc1 (stereo not drawn),inactive: 97%
16,CP(=O)(Nc1ccc(Cl)cc1)Oc1ccc(F)cc1 (stereo not drawn),inactive: 101%
17,COc1ccccc1OP(C)(=O)Nc1ccccc1Br (stereo not drawn),inactive: 98%
18,CC(C)(C)c1ccc(OP(C)(=O)O)cc1,inactive: 108%
19,CN(C)C(=O)c1c([N+](=O)[O-])cc([N+](=O)[O-])cc1[N+](=O)[O-],inactive: 99%
20,CCN(CC)CC(O)COC(=O)C(O)(c1ccccc1)C1CCCCC1 (stereo not drawn),inactive: 104%
21,COc1ccc(OP(C)(=O)Nc2ccc(Br)cc2)cc1 (stereo not drawn),inactive: 99%
22,CP(=O)(Oc1ccccc1)N1CCOC1=O (stereo not drawn),inactive: 99%
23,CCc1ccc(OP(C)(=O)Nc2cccnc2)cc1 (stereo not drawn),inactive: 92%

row,SMILES,GTP binding activity
1,CP(=O)(Nc1ccc2c(c1)OCCO2)Oc1ccccc1 (stereo not drawn),inactive: 102%
2,Cc1ccccc1NP(C)(=O)Nc1ccccc1C,inactive: 100%
3,CCOP(C)(=S)SCC(=O)NC(C)(CC)C(=O)O (stereo not drawn),inactive: 97%
4,O=[N+]([O-])c1cc([N+](=O)[O-])c(NCC2CCS(=O)(=O)C2)c([N+](=O)[O-])c1 (stereo not drawn),inactive: 94%
5,COc1ccc(OP(C)(=O)Nc2cccc(Br)c2)cc1 (stereo not drawn),inactive: 103%
6,COc1ccc(NP(C)(=O)Oc2ccccc2OC)cc1 (stereo not drawn),inactive: 101%
7,CN(C)CCOC(=O)C(O)(c1ccccc1)C1CCCCC1 (stereo not drawn),inactive: 100%
8,CCN(CC)CCCOC(=O)C(O)(c1ccccc1)C1CCCCC1 (stereo not drawn),inactive: 99%
9,CP(=O)(Nc1ccccc1)Oc1ccc(F)cc1 (stereo not drawn),inactive: 103%
10,COc1ccc(OP(C)(=O)Nc2ccc(SC(F)(F)F)cc2)cc1 (stereo not drawn),inactive: 94%
11,CCOC(=O)c1ccc(NP(C)(=O)Oc2ccc(F)cc2)cc1 (stereo not drawn),inactive: 98%
12,O=C(OCCN1CCN(CCOCc2ccccc2)CC1)C(O)(c1ccccc1)c1ccccc1,inactive: 103%
13,CP(=O)(Nc1ccccc1F)Oc1ccccc1 (stereo not drawn),inactive: 96%
14,Cc1cc(C)cc(OP(C)(=O)Nc2ccccn2)c1 (stereo not drawn),inactive: 101%
15,CP(=O)(Nc1cccc(Br)c1)Oc1ccccc1 (stereo not drawn),inactive: 96%
16,Cc1ccc(C)c(NP(C)(=O)Oc2ccccc2)c1 (stereo not drawn),inactive: 100%
17,Cc1cc(C)cc(OP(C)(=O)Nc2ccc(C)cc2C)c1 (stereo not drawn),inactive: 102%
18,CCOC(=O)c1ccc(NP(C)(=O)Oc2cc(C)cc(C)c2)cc1 (stereo not drawn),inactive: 102%
19,CC1=NCCc2c1[nH]c1ccccc21.O=[N+]([O-])c1cc([N+](=O)[O-])c(O)c([N+](=O)[O-])c1,inactive: 91%
20,CN1CCCCC1COC(=O)C1(O)c2ccccc2CCc2ccccc21 (stereo not drawn),inactive: 102%
21,COc1ccccc1OP(C)(=O)Nc1c(C)cccc1C (stereo not drawn),inactive: 102%
22,CCCOc1ccc(NP(C)(=O)Oc2ccc(Cl)cc2)cc1 (stereo not drawn),inactive: 93%
23,CP(=O)(Nc1ccc(SC(F)(F)F)cc1)Oc1ccccc1 (stereo not drawn),inactive: 98%

row,SMILES,GTP binding activity
1,Cc1nc2ccc3ccccc3c2s1.O=[N+]([O-])c1cc([N+](=O)[O-])c(O)c([N+](=O)[O-])c1,inactive: 100%
2,O=[N+]([O-])c1cc([N+](=O)[O-])c(-n2nnc3ccccc32)c([N+](=O)[O-])c1,inactive: 95%
3,CCOP(C)(=S)SCC(=O)NC(C)C(=O)O (stereo not drawn),inactive: 105%
4,CCOC(=O)c1ccc(NP(C)(=O)Oc2ccc(OC)cc2)cc1 (stereo not drawn),inactive: 102%
5,CP(=O)(Nc1ccccn1)Oc1ccc(Cl)cc1 (stereo not drawn),inactive: 96%
6,Cc1cccc(C)c1OP(C)(=O)Nc1ccc(SC(F)(F)F)cc1 (stereo not drawn),inactive: 96%
7,CP(=O)(Oc1ccccc1)OC(c1ccccc1)C(F)(F)F (stereo not drawn),inactive: 98%
8,CP(=O)(NC(=O)Nc1ccccc1)Oc1ccccc1 (stereo not drawn),inactive: 99%
9,Cc1cc(C)cc(OP(C)(=O)Nc2ccc(SC(F)(F)F)cc2)c1 (stereo not drawn),inactive: 97%
10,CP(=S)(Nn1cnnc1)Oc1ccccc1 (stereo not drawn),inactive: 103%
11,COc1ccccc1OP(C)(=O)Nc1ccccc1 (stereo not drawn),inactive: 96%
12,CP(=O)(Nc1ccccc1Br)Oc1ccccc1 (stereo not drawn),inactive: 103%
13,CCOC(=O)c1ccc(NP(C)(=O)Oc2ccccc2)cc1 (stereo not drawn),inactive: 100%
14,COc1ccccc1OP(C)(=O)Nc1ccc(C)cc1 (stereo not drawn),inactive: 99%
15,Cc1ccc(NP(C)(=O)Oc2ccccc2)c(C)c1 (stereo not drawn),inactive: 99%
16,COc1ccccc1OP(C)(=O)Nc1cc(Cl)ccc1C (stereo not drawn),inactive: 98%
17,COc1ccc(OP(C)(=O)Nc2cccc(F)c2)cc1 (stereo not drawn),inactive: 100%
18,Cc1cc(C)cc(OP(C)(N)=O)c1 (stereo not drawn),inactive: 98%
19,CC(C)(C)c1ccc(OP(C)(=O)Nc2ccc(SC(F)(F)F)cc2)cc1 (stereo not drawn),inactive: 102%
20,Cc1cccc(C)c1OP(C)(N)=O (stereo not drawn),inactive: 99%
21,O=[N+]([O-])c1ccc2c(c1)C=Nc1ccccc1O2,inactive: 92%
22,CCN(CC)CCCOC(=O)C(O)(c1ccccc1)c1ccccc1,inactive: 102%
